{"source": "patent US5858992A", "about": "“Non-reducing saccharides, their preparation and use” (Kabushiki Kaisha Hayashibara Seibutsu Kagaku Kenkyujo, priority 1995, dated 1999)", "system": "glucosyltransferase", "assay": "Inhibition of insoluble glucan formation by glucosyltransferase from dental caries-inducing microorganism", "type": "biochemical, Streptococcus sobrinus strain (ATCC 27351)", "conditions": "sucrose plus test saccharide (one ml of one w/v % each), 37° C., 16 hours", "description": "To a mixture solution consisting of one ml of one w/v % sucrose solution, one ml of one w/v % of a test saccharide solution, and 1.5 ml of 0.1M phosphate buffer (pH 6.8) was added 0.5 ml solution containing a crude glucosyltransferase specimen in a total protein content of 10 mg, and the mixture solution was placed in a small test tube which was then fixed and slanted to give a grade 30 degrees and allowed to react at 37° C. for 16 hours. The reaction mixture was transferred gently to another test tube and mixed with a solution obtained by washing carefully with 4 ml water the remaining substances adhered to the inner walls of the small test tube, and the mixture solution was centrifuged to obtain a precipitate as a non-adsorbed glucan. The amounts of the adsorbed- and non-adsorbed glucans thus obtained were respectively quantified by the anthrone-sulfuric acid method, and the total amount of them was regarded as the amount of the formed insoluble glucans. As a control system, a reaction system using water in place of the test saccharide solution, i.e. a reaction system using sucrose as a saccharide, was provided. […]"}
{"smiles": "OC[C@H]1O[C@H](OC[C@H]2OC(O)[C@H](O)[C@@H](O)[C@@H]2O)[C@H](O)[C@@H](O)[C@@H]1O", "note": "(stereo partly drawn) [Isomaltose, reference compound]", "values": [{"measurement": "Yield of non-adsorbed glucans", "setting": "sucrose alone control 923", "result": 305, "unit": "pg/mL"}, {"measurement": "Yield of adsorbed glucans", "setting": "sucrose alone control 1,160", "result": 67, "unit": "pg/mL"}, {"measurement": "Inhibitory percentage (%) on insoluble glucans formation", "setting": "vs sucrose alone", "result": 82.2, "unit": "%"}]}
